In experiment [1] the test system is BT474 clone 5 (Trastuzumab-resistant) breast cancer cells. The experiment is classed as cell-based. The note with it: 3 days, doses from 2.5 µg/mL. From the text: (§1) Fig. 1 Hydrocarbon stapling leads to increased EJ1 activity in comparison to HER-directed monoclonal therapies. a EJ1 sequence with PTD4 domain (underlined) corresponding to EGFR juxtamembrane domain sequence 643–663. Stabilized alpha helix (SAH) variations 1–5 beneath, with asterisks (*) indicating sites of staple. Control peptide (CP) with altered residues indicated by double underline. Stapled control (5) asterisks (*) indicate sites of staple. b Cartoon representation of EJ1 structure, with staple variation 5 highlighted. Positively charged residues indicated in blue, negatively charged residues in red. c Cartoon representation of CP structure, with staple variation highlighted. d Cell viability assay performed in MDA-MB-468 cells after 24 h comparing unstapled EJ1 versus staple variations SAH1, SAH4, and SAH5, with increasing concentrations. e Visualization of MDA-MB-468 cells untreated, treated with 10 µM EJ1, and 10 µM SAH5-EJ1 after 60 min. Scale bars represent 50 µm. f–h Cell viability assay performed in MDA-MB-468, MCF10A, or CHO cells over 3 days comparing treatment with Sapitinib (blue lines), SAH5-EJ1 (red lines), and SAH5-CP (grey lines). […] Absorbance was read at 540 nm by plate reader (uQuant, Bio-Tek Instruments). P-values were calculated from a one-way ANOVA.

The test system of experiment [2] is BT474 breast cancer cells, Trastuzumab-sensitive (Parental). The experiment is classed as cell-based. The settings on record: 3 days of treatment, doses from 2.5 µg/mL.
Description: as §1

In the case of “Trastuzumab: anti-HER2 monoclonal antibody”, the values for the cell survival result in experiment [1] and in experiment [2] were “approximately 50%” and “approximately 25%”, respectively.

Source of the values: paper PMC6582486, “Stapled EGFR peptide reduces inflammatory breast cancer and inhibits additional HER-driven models of cancer” (Journal of Translational Medicine, 2019).
